Patent publication US20220153745A1, “DISUBSTITUTED BENZOTHIENYL-PYRROLOTRIAZINES AND THEIR USE AS FGFR KINASE INHIBITORS” (Bayer Intellectual Property GmbH, priority 2011, published 2022)
Where a name gives a salt, the structure may show the parent alone.

By UniProt entry, the sequences of proteins in these tests, tags left out. Residues count along the entry.
UniProt P22607, 397-806: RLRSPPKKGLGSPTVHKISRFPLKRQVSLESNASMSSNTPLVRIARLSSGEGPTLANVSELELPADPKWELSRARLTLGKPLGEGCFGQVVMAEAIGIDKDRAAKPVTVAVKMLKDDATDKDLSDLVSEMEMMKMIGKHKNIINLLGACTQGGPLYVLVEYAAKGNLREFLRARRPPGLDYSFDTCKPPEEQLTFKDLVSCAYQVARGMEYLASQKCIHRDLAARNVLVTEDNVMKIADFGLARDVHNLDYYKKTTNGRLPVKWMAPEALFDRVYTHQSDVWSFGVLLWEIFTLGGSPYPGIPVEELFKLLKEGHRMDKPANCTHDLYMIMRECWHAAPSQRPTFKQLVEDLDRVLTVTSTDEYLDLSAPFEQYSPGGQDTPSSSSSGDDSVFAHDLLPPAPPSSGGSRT
UniProt P11362, 402-822: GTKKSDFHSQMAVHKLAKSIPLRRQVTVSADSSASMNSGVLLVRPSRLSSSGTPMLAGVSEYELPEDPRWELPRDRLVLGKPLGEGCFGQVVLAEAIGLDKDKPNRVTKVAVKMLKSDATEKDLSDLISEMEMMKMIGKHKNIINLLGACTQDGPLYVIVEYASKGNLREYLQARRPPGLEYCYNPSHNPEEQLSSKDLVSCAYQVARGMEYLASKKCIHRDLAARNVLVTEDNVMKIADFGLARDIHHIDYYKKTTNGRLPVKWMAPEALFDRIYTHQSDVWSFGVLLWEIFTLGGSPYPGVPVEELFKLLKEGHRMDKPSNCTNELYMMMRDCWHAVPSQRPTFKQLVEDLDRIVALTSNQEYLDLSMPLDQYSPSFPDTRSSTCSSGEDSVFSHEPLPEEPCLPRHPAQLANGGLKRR

Columns and labels:
FGFR-3 = target: T1, FGFR-3 (Homo sapiens, UniProt P22607); assay: FGFR-3 kinase assay (TR-FRET); assay type: biochemical; settings: 10 μM ATP, 15 min pre-incubation; compounds of the invention (Table 2A)
T1 construct: human FGFR-3 from amino acids R397 to T806 as in NCBI/Protein entry NP_000133.1; purchased Proqinase 1068-0000-1; host or cells: SF9 insect cells (baculovirus)

FGFR-1 = target: T2, FGFR-1 (Homo sapiens, UniProt P11362); assay: FGFR-1 high ATP kinase assay (TR-FRET); assay type: biochemical; settings: 2 mM ATP, 15 min pre-incubation; compounds of the invention (Table 1A)
T2 construct: human FGFR-1 from amino acids G400 to R800 as in GenBank entry NM_015850; purchased Proqinase 0101-0000-1; host or cells: SF9 insect cells (baculovirus)

| SMILES | IC50 (FGFR-3) [nM] | IC50 (FGFR-1) [nM] |
| --- | --- | --- |
| CCN(CC)Cc1c(-c2cc3cc(C)cc(OC)c3s2)c2c(N)ncnn2c1CN1CCNCC1 [Example 43, 6-[(Diethylamino)methyl]-5-(7-methoxy-5-methyl-1-benzothiophen-2-yl)-7-(piperazin-1-ylmethyl)pyrrolo[2,1-f][1,2,4]triazin-4-amine trihydrochloride] | 32.4 |  |
| COc1cc(C)cc2cc(-c3c(CNCC(=O)O)c(CN4CCNCC4)n4ncnc(N)c34)sc12 [Example 48, N-{[4-Amino-5-(7-methoxy-5-methyl-1-benzothiophen-2-yl)-7-(piperazin-1-ylmethyl)pyrrolo[2,1-f]-[1,2,4]triazin-6-yl]methyl}glycine trihydrochloride] |  | 12.8 |
